Test results: patent US20100249055A1, “CLOFARABINE PHOSPHOLIPID DERIVATIVES” (HEIDELBERG PHARMA AG, priority 2007, published 2010)

Assay: Oral bioavailability and pharmacokinetics in mice (plasma, mass spectroscopy)
Settings: WFI, experiment P06.0069

Substance: [2-Chloro-9-(2′-deoxy-2′-fluoro-β-D-arabinofuranosyl)adenine]-5′-phosphoric acid-(2-decyloxy-3-dodecyloxy)propyl ester [Compound 1]
- Vd (30 mg/kg iv): 0.62 L/kg
- t½α (30 mg/kg iv): 0.2 h
- t½β (30 mg/kg iv): 4.6 h
- Vd (30 mg/kg po): 2.00 L/kg
- t½α (30 mg/kg po): 0.5 h
- t½β (30 mg/kg po): 4.2 h
